Results on 83 compounds are retold here after PubChem BioAssay AID1865 (National Center for Advancing Translational Sciences (NCATS), 2009).

Only a part is listed here, and it is no random draw. Active and inactive are the calls of the source. Calls come from the whole dose curve; as a rule, active = well fitted activation curve with a large enough effect; inconclusive = small, poorly fitted or top-dose-only effect; inactive = flat fitted curve, though single readings scatter.

A short description of this experiment: Quantitative High-Throughput Screen for Regulators of Epigenetic Control. Note: % of control where 0% means no effect; nearly all actives have a fitted effect of over 60% in size. The note with it: murine LDR cells, GFP reporter derepression, 30 h; at 53.9 µM (top of the series) unless noted. The text has this:
NIH Molecular Libraries Screening Centers Network [MLPCN] NIH Chemical Genomics Center [NCGC] MLSCN Grant: 1 X01 MH079860-01 Assay Provider: Elisabeth D. Martinez, University of Texas SW Medical Center NCGC Assay Overview: The Locus Derepression (LDR) assay detects the derepression or induction of a GFP reporter that is stably integrated in a genomic region of murine cells that is presumably silenced. Transcription of the GFP reporter is controlled by a CMV promoter, which normally is constitutively active. However, this cell line, termed LDR, was selected for lack of constitutive production of GFP. GFP production can be induced by incubating the cells with histone deacetylase or DNA methyltransferase inhibitors (Martinez et al., 2006). Compounds that derepress or induce this reporter locus are identified by enumerating GFP positive cells using a laser-scanning microplate cytometer (Auld et al., 2006). This assay was screened against the MLSMR earlier (AID 597; (Johnson et al., 2008) and has been rescreened here against the expanded collection.
NCGC Assay Protocol Summary: Three hundred LDR cells in 5 uL per well were dispensed into black, clear-bottom 1536-well plates. Twenty-three nL compound was transferred to the assay plate and cells were incubated 30 hours at 37 C. Medium was removed, cells were washed two times with PBS, and GFP-positive cells were enumerated as fluorescent objects between the sizes of 20 to 120 um width and depth using an Acumen Explorer. References Auld, DS, Johnson, RL, Zhang, YQ, Veith, H, Jadhav, A, Yasgar, A, Simeonov, A, Zheng, W, Martinez, ED, Westwick, JK, Austin, CP, Inglese, J (2006). Fluorescent protein-based cellular assays analyzed by laser-scanning microplate cytometry in 1536-well plate format. Methods Enzymol 414: 566-89. Johnson, RL, Huang, W, Jadhav, A, Austin, CP, Inglese, J, Martinez, ED (2008). A quantitative high-throughput screen identifies potential epigenetic modulators of gene expression. Anal Biochem 375: 237-48. Martinez, ED, Dull, AB, Beutler, JA, Hager, GL (2006). High-content fluorescence-based screening for epigenetic modulators. Methods Enzymol 414: 21-36.
Regarding `O=[N+]([O-])c1cc([N+](=O)[O-])c(-n2nnc3ccccc32)c([N+](=O)[O-])c1`, the GFP activation was inactive: 3.39%. Under `Cc1nc2ccc3ccccc3c2s1.O=[N+]([O-])c1cc([N+](=O)[O-])c(O)c([N+](=O)[O-])c1` stands inactive: 2.78%; under `O=[N+]([O-])c1cc([N+](=O)[O-])c(Nc2nnnn2CCO)c([N+](=O)[O-])c1`, inactive: 1.08%; under `CP(=O)(Nc1ccc(SC(F)(F)F)cc1)Oc1ccccc1` (stereo not drawn), inactive: 3.88%. For the compound `CCCOc1ccc(NP(C)(=O)Oc2ccc(Cl)cc2)cc1` (stereo not drawn), the GFP activation is inactive: -0.111%. Under `CN1CCCCC1COC(=O)C1(O)c2ccccc2CCc2ccccc21` (stereo not drawn) stands inactive: -0.917%; under `COc1ccccc1OP(C)(=O)Nc1c(C)cccc1C` (stereo not drawn), inactive: -1.06%. For the compound `CC1=NCCc2c1[nH]c1ccccc21.O=[N+]([O-])c1cc([N+](=O)[O-])c(O)c([N+](=O)[O-])c1`, the GFP activation is inactive: 0%.

With `O=[N+]([O-])OCC(CO[N+](=O)[O-])(CO[N+](=O)[O-])CO[N+](=O)[O-]`, the GFP activation is inactive: -4.62%. For the compound `CCOC(=O)c1ccc(NP(C)(=O)Oc2cc(C)cc(C)c2)cc1` (stereo not drawn), the GFP activation was inactive: 0%.

Turning to `Cc1cc(C)cc(OP(C)(=O)Nc2ccc(C)cc2C)c1` (stereo not drawn), the GFP activation was inactive: -1%. Under `COc1ccccc1OP(C)(=O)Nc1cccc(Br)c1` (stereo not drawn) stands inactive: -3.85%; under `Cc1ccc(C)c(NP(C)(=O)Oc2ccccc2)c1` (stereo not drawn), inactive: -1.14%. Under `CP(=O)(Nc1cccc(Br)c1)Oc1ccccc1` (stereo not drawn) stands inactive: -0.494%; under `Cc1cc(C)cc(OP(C)(=O)Nc2ccccn2)c1` (stereo not drawn), inactive: 0%. Consider `CCN(CC)CCCOC(=O)C(O)(c1ccccc1)c1ccccc1`, for which the GFP activation was inactive: -0.189%. Under `O=[N+]([O-])c1ccc2c(c1)C=Nc1ccccc1O2` stands inactive: 2.94%; under `Cc1cccc(C)c1OP(C)(N)=O` (stereo not drawn), inactive: -2.56%; under `Cc1cc(C)cc(OP(C)(N)=O)c1` (stereo not drawn), inactive: 0%. Consider `COc1ccccc1OP(C)(=O)Nc1cc(Cl)ccc1C` (stereo not drawn), for which the GFP activation is inactive: 1.7%. Turning to `COc1ccc(OP(C)(=O)Nc2cccc(F)c2)cc1` (stereo not drawn), the GFP activation is inactive: -4.55%. Consider `COc1ccccc1OP(C)(=O)Nc1ccc(C)cc1` (stereo not drawn), for which the GFP activation is inactive: -2.64%. Under `Cc1ccc(NP(C)(=O)Oc2ccccc2)c(C)c1` (stereo not drawn) stands inactive: 1.9%; under `CCOC(=O)c1ccc(NP(C)(=O)Oc2ccccc2)cc1` (stereo not drawn), inactive: -5.11%; under `CP(=O)(Nc1ccccc1Br)Oc1ccccc1` (stereo not drawn), inactive: -3.24%. Under `COc1ccccc1OP(C)(=O)Nc1ccccc1` (stereo not drawn) stands inactive: 0%; under `CP(=S)(Nn1cnnc1)Oc1ccccc1` (stereo not drawn), inactive: -1.08%. In the case of `CCc1ccc(OP(C)(=O)N2CCN(c3ccc([N+](=O)[O-])cc3)CC2)cc1` (stereo not drawn), the GFP activation is inactive: 0.0549%. As for `CP(=O)(NC(=O)Nc1ccccc1)Oc1ccccc1` (stereo not drawn), the GFP activation was inactive: -1.22%. Under `Cc1cc(C)cc(OP(C)(=O)Nc2ccc(SC(F)(F)F)cc2)c1` (stereo not drawn) stands inactive: -0.99%; under `CP(=O)(Nc1ccc(SC(F)(F)F)cc1)Oc1ccc(Cl)cc1` (stereo not drawn), inactive: -0.417%.

For the compound `Cc1cccc(C)c1OP(C)(=O)Nc1ccc(SC(F)(F)F)cc1` (stereo not drawn), the GFP activation is inactive: -0.0192%. As for `CP(=O)(Oc1ccccc1)OC(c1ccccc1)C(F)(F)F` (stereo not drawn), the GFP activation is inactive: -0.146%.

As to `CP(=O)(Nc1ccccn1)Oc1ccc(Cl)cc1` (stereo not drawn), the GFP activation is inactive: -2.22%. Regarding `CCOC(=O)c1ccc(NP(C)(=O)Oc2ccc(OC)cc2)cc1` (stereo not drawn), the GFP activation is inactive: -1.04%. As for `CCOP(C)(=S)SCC(=O)NC(C)C(=O)O` (stereo not drawn), the GFP activation was inactive: -5.36%. In the case of `COc1ccccc1OP(C)(=O)Nc1c(C)n(C)n(-c2ccccc2)c1=O` (stereo not drawn), the GFP activation was inactive: 0.0168%. Under `O=C(OCCCN1CCCC1)C(O)(c1ccccc1)C1CCCCC1` (stereo not drawn) stands inactive: -1.08%; under `OCCSCCO`, inactive: 5.1%. Take `CP(=O)(Oc1ccccc1)N1CCOC1=O` (stereo not drawn): the GFP activation is inactive: 4.42%.

For the compound `CCc1ccc(OP(C)(=O)Nc2cccnc2)cc1` (stereo not drawn), the GFP activation was inactive: -1.5%. With `CCN(CC)CC(O)COC(=O)C(O)(c1ccccc1)C1CCCCC1` (stereo not drawn), the GFP activation was inactive: -1.08%. In the case of `COc1ccc(OP(C)(=O)Nc2ccc(Br)cc2)cc1` (stereo not drawn), the GFP activation is inactive: 0%. Consider `N#[O+].[C-]#N.[C-]#N.[C-]#N.[C-]#N.[C-]#N.[Fe+2].[Na+].[Na+]`, for which the GFP activation is inactive: -1.22%. Under `CN(C)C(=O)c1c([N+](=O)[O-])cc([N+](=O)[O-])cc1[N+](=O)[O-]` stands inactive: -1.05%; under `CC(C)(C)c1ccc(OP(C)(=O)O)cc1`, inactive: 0.781%; under `COc1ccccc1OP(C)(=O)Nc1ccccc1Br` (stereo not drawn), inactive: -0.381%. Regarding `CP(=O)(Nc1ccc(Cl)cc1)Oc1ccc(F)cc1` (stereo not drawn), the GFP activation is inactive: 3.77%. Under `CCOC(=O)c1ccc(NP(C)(=O)Oc2ccc(Cl)cc2)cc1` (stereo not drawn) stands inactive: -1.59%; under `CP(=O)(OC12CC3CC(CC(C3)C1)C2)OC12CC3CC(CC(C3)C1)C2`, inactive: 4.17%.

Turning to `C/C1=C2N=C(/C=C3N=C(/C(C)=C4\[N-][C@@](C)([C@H]5N=C1[C@@](C)(CCC(=O)NC[C@H](C)OP(=O)([O-])O[C@@H]1[C@H](O)[C@H](n6cnc7cc(C)c(C)cc76)O[C@@H]1CO)[C@@H]5CC(N)=O)[C@](C)(CC(N)=O)[C@H]4CCC(N)=O)[C@@](C)(CC(N)=O)[C@@H]\3CCC(N)=O)C(C)(C)[C@@H]/2CCC(N)=O.[C-]#N.[Co+3]`, the GFP activation is inactive: 2.74% [at 16.9 µM]. For `COc1ccccc1OP(C)(=O)Nc1ccc(C)c(C)c1` (stereo not drawn), the GFP activation is inactive: -2.94%. On to `COc1ccc(OP(C)(=O)Nc2ccccc2Br)cc1` (stereo not drawn), for which the GFP activation was inactive: -1.04%. For `Cc1cc(C)cc(OP(C)(=O)Nc2cccc(C(F)(F)F)c2)c1` (stereo not drawn), the GFP activation was inactive: 5.14%.

Take `CP(=O)(OCCOc1ccccc1)OCCOc1ccccc1`: the GFP activation is inactive: -1.63%. As for `CP(=O)(Nc1ccc(Cl)cc1Cl)Oc1ccccc1` (stereo not drawn), the GFP activation was inactive: -0.292%. As to `Cc1nc2ccc3ccccc3c2o1.O=[N+]([O-])c1cc([N+](=O)[O-])c(O)c([N+](=O)[O-])c1`, the GFP activation is inactive: -1.81%. Consider `COc1ccc(OP(C)(=O)Nc2ccccn2)cc1` (stereo not drawn), for which the GFP activation was inactive: -3.87%.

Turning to `CN(C)CCOC(=O)C(O)(c1ccccc1)C1CCCC1` (stereo not drawn), the GFP activation is inactive: -1.08%. `COc1ccccc1OP(C)(=O)Nc1ccc(Br)cc1` (stereo not drawn): the GFP activation was inactive: 2.13%. Under `CP(=O)(Nc1ccccn1)Oc1ccccc1` (stereo not drawn) stands inactive: 1.78%; under `COc1ccccc1OP(C)(=O)Nc1ccc(C)cc1C` (stereo not drawn), inactive: -2.28%; under `CCc1ccc(OP(C)(=O)O)cc1`, inactive: -1.09%.

Regarding `O=[N+]([O-])c1cc([N+](=O)[O-])c(Nc2ccccn2)c([N+](=O)[O-])c1`, the GFP activation was inactive: -7.29%. Take `Cc1c(NP(C)(=O)Oc2ccc(C(C)C)cc2)c(=O)n(-c2ccccc2)n1C` (stereo not drawn): the GFP activation was inactive: 1.06%. In the case of `CP(=O)(Nc1ccccc1F)Oc1ccccc1` (stereo not drawn), the GFP activation is inactive: 1.81%.

In the case of `CC(C)c1ccc(OP(C)(=O)Nc2ccc(SC(F)(F)F)cc2)cc1` (stereo not drawn), the GFP activation was inactive: -2.99%. Regarding `O=C(OCCN1CCN(CCOCc2ccccc2)CC1)C(O)(c1ccccc1)c1ccccc1`, the GFP activation is inactive: -1.28%.

For `CCOC(=O)c1ccc(NP(C)(=O)Oc2ccc(F)cc2)cc1` (stereo not drawn), the GFP activation was inactive: -4.76%. On to `COc1ccc(OP(C)(=O)Nc2ccc(SC(F)(F)F)cc2)cc1` (stereo not drawn), for which the GFP activation was inactive: -3.17%.

Take `CP(=O)(Nc1ccccc1)Oc1ccc(F)cc1` (stereo not drawn): the GFP activation was inactive: -0.262%. As to `CCCCCOc1ccc(NP(C)(=O)Oc2ccc(Cl)cc2Cl)cc1` (stereo not drawn), the GFP activation is inactive: 8.29%. As for `CCN(CC)CCCOC(=O)C(O)(c1ccccc1)C1CCCCC1` (stereo not drawn), the GFP activation was inactive: 0%. Under `CN(C)CCOC(=O)C(O)(c1ccccc1)C1CCCCC1` (stereo not drawn) stands inactive: 3.53%; under `COc1ccc(NP(C)(=O)Oc2ccccc2OC)cc1` (stereo not drawn), inactive: 1.28%; under `COc1ccc(OP(C)(=O)Nc2cccc(Br)c2)cc1` (stereo not drawn), inactive: -1.79%.

On to `O=[N+]([O-])c1ccc(OP2(=O)COCCO2)cc1` (stereo not drawn), for which the GFP activation is inactive: 0.0625%. Consider `Cc1cc(-c2cccc3ccccc23)c(C)cn1.O=[N+]([O-])c1cc([N+](=O)[O-])c(O)c([N+](=O)[O-])c1`, for which the GFP activation is inactive: 9.64%. With `CCOP(C)(=S)SCC(=O)NC(C)(CC)C(=O)O` (stereo not drawn), the GFP activation is inactive: 4.52%.

As for `CP(=O)(Nc1ccc(SC(F)(F)F)cc1)Oc1ccc(F)cc1` (stereo not drawn), the GFP activation was inactive: -2.65%.

Turning to `CCN(CCCl)Cc1ccccc1C`, the GFP activation was inactive: 1.06%. Regarding `Cc1ccccc1NP(C)(=O)Nc1ccccc1C`, the GFP activation was inactive: 0%. Consider `CP(=O)(Nc1ccc2c(c1)OCCO2)Oc1ccccc1` (stereo not drawn), for which the GFP activation was inactive: 0.833%.
